Tested on: USA300 MRSA (strain LAC)
Test: Murine dermonecrosis model
Format: in vivo, BALB/c mice

## C[C@@H]1NC(=O)[C@@H](NC(=O)[C@@H]2CCCN2C(=O)[C@H](CO)NC(=O)[C@H](Cc2ccc(O)cc2)NC(=O)[C@@H](N)CO)CSC(=O)[C@H](Cc2ccccc2)NC(=O)[C@H](Cc2ccc(O)cc2)NC(=O)[C@H]([C@@H](C)O)NC1=O [AIP-II]
50 μg synthetic AIP-II, intradermal with MRSA, vs vehicle, not statistically significant
  weight change: tended to lose less weight
50-μg dose of synthetic AIP-II, after 5 days of infection
  lesion severity: closely resembled that of mice administered an agr mutant

— paper PMC9239047 (mBio, 2022)
